Results as given in ChEMBL document CHEMBL3351265, “Astemizole arrests the proliferation of cancer cells by disrupting the EZH2-EED interaction of polycomb repressive complex 2” (J Med Chem, 2014).

By UniProt entry, the sequences of proteins in these tests, tags left out.
UniProt O75530, whole entry: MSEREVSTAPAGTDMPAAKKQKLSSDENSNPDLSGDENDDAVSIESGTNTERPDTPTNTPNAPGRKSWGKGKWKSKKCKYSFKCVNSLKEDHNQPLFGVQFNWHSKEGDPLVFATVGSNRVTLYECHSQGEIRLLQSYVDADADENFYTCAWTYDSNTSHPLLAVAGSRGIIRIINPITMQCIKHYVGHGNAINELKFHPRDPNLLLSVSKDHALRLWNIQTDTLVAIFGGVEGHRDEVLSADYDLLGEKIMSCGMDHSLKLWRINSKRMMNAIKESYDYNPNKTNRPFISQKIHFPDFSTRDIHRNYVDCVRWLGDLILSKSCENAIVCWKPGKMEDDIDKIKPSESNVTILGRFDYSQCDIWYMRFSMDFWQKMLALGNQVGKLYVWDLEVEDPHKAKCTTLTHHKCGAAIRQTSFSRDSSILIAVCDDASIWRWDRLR

Target: Polycomb protein EED (Homo sapiens, UniProt O75530)
Experiment: Displacement of FITC-labeled EZH2 peptide from recombinant N-terminal 6His-tagged EED (residues 81 to 441) (unknown origin) expressed in Escherichia coli strain BL21 (DE3) after 1 hr by fluorescence polarization assay

COc1ccc(CCN2CCC(Nc3nc4ccccc4n3Cc3ccc(F)cc3)CC2)cc1 [ASTEMIZOLE]
Ki: 23 µM
